Experimental data: ChEMBL document CHEMBL1127295, “Development of a model for the delta opioid receptor pharmacophore. 2. Conformationally restricted Phe3 replacements in the cyclic delta receptor selective tetrapeptide Tyr-c[D-Cys-Phe-D-Pen]OH (JOM-13)” (J Med Chem, 1994)

Protein sequences, listed by entry. Tags and fused reporters are not part of them.
UniProt P41143, whole entry, looked up: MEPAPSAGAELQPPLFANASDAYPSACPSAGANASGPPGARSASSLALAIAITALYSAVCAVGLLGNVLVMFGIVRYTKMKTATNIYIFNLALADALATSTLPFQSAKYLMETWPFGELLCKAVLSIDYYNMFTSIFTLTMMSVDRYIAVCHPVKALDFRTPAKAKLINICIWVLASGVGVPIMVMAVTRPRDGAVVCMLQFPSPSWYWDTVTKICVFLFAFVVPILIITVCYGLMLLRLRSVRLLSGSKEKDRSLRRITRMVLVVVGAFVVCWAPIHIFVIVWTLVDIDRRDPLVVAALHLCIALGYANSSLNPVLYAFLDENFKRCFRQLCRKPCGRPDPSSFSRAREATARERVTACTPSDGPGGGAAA
UniProt P35372, whole entry, looked up: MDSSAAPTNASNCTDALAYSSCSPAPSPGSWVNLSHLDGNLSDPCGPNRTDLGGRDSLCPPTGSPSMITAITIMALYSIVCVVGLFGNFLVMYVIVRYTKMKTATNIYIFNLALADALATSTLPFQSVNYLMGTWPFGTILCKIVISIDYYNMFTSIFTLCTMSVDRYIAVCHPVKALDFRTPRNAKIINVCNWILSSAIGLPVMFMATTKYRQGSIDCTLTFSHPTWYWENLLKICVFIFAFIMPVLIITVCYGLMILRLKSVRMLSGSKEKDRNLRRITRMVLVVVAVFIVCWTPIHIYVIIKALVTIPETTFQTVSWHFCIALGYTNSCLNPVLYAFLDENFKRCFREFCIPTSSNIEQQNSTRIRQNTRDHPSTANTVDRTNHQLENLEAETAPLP

Legend:
[1] = target: T1, Opioid receptors; mu & delta (Homo sapiens) (UniProt P41143+P35372); experiment: Ratio of IC50 value against mu receptor to that of delta receptor; format: protein assay
[2] = target: T1, Opioid receptors; mu & delta (Homo sapiens); experiment: Ratio of the Ki value towards mu receptor to that of delta receptor; format: protein assay

Row | Structure (SMILES) | Ratio [1] | Ratio [2]
1 | CC1(C)SSC[C@H](NC(=O)[C@@H](N)Cc2ccc(O)cc2)C(=O)N[C@@H](Cc2ccccc2)C(=O)N[C@@H]1C(=O)O | 110 | 69
2 | CC1(C)SSC[C@H](NC(=O)[C@@H](N)Cc2ccc(O)cc2)C(=O)N[C@H](Cc2ccccc2)C(=O)N[C@@H]1C(=O)O (stereo in doubt; 3) | 72 | 81
3 | CC1(C)SSC[C@H](NC(=O)[C@@H](N)Cc2ccc(O)cc2)C(=O)N[C@H](Cc2ccccc2)C(=O)N[C@@H]1C(=O)O (stereo in doubt; 4) | > 3090 | 2100
4 | CC1(C)SSC[C@H](NC(=O)[C@@H](N)Cc2ccc(O)cc2)C(=O)N[C@H](Cc2ccccc2)C(=O)N[C@@H]1C(=O)O (stereo in doubt; 5) | 182 | 170
5 | CC1(C)SSC[C@H](NC(=O)[C@@H](N)Cc2ccc(O)cc2)C(=O)N[C@H](Cc2ccccc2)C(=O)N[C@@H]1C(=O)O (stereo in doubt; 6) |  | 36
